Experiments:
[1] = molecular target: T1, muscarinic receptor (ileum) (Cavia porcellus, UniProt H0W1Z3); test: Anticholinergic action in guinea-pig ileum (antagonism of ACh response, Schild method); assay type: cell-based, guinea pig (male Hartley); conditions: Tyrode solution, 32° C., test compound 5 min. before ACh, read-out: Anticholinergic activity (pA2) Ileum (converted)
T1 construct: from tissue; host or cells: guinea-pig ileal segments (male Hartley)
Protocol: (§1) 1. Anticholinergic action in guinea-pig ileum and atria Male Hartley guinea pigs were sacrificed by blowing on the head and bleeding.
Responses to acetyllchlloline (ACh) added cumulatively to the baths were isotonically recorded under a tension of 1 g. Dose-response curves of ACh were determined in the absence and presence of test compounds in various concentrations added to the baths 5 min. before ACh application.

By UniProt entry, the sequences of proteins in these tests, tags left out. Residues count along the entry.
UniProt H0W1Z3, 1-590: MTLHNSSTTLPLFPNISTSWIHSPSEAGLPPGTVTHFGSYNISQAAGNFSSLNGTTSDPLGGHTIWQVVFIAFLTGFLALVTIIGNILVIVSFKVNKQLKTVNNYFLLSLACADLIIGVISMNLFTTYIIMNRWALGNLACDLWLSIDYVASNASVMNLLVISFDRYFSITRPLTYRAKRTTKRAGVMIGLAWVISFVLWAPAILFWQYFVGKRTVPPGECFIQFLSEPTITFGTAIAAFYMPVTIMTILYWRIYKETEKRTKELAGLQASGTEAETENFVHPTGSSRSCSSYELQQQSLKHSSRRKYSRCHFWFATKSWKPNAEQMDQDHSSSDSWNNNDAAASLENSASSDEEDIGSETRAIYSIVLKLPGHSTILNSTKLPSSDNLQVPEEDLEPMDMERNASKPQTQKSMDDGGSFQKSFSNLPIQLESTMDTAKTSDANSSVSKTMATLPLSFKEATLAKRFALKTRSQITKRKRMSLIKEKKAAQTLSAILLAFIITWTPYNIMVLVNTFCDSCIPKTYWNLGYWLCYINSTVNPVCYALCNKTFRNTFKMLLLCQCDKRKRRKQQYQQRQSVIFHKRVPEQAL
UniProt H0VRN8, 1-466: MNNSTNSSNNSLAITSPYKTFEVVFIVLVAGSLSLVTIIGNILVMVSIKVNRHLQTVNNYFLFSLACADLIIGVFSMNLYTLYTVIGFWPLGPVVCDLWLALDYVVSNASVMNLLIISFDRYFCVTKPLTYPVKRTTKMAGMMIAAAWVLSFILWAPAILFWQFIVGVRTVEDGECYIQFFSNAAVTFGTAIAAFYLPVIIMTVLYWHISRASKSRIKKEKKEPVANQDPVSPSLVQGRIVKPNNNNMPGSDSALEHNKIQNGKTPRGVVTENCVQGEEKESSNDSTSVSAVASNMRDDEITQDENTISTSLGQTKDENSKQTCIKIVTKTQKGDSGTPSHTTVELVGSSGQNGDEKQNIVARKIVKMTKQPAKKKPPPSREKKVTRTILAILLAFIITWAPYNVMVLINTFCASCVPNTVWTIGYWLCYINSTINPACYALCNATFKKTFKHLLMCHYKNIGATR

[2] = molecular target: T2, muscarinic receptor (atrium, cardiac) (Cavia porcellus, UniProt H0VRN8); test: Anticholinergic action in guinea-pig atria (antagonism of ACh response, Schild method); assay type: cell-based, guinea pig (male Hartley); conditions: Table 8; isolated atria, Tyrode solution, 32° C., 10 min. equilibration; read-out: Anticholinergic activity (pA2) Atrium (converted)
T2 construct: from tissue; host or cells: guinea-pig isolated atria (male Hartley)
Protocol: as §1
The isolated atria were suspended under 0.5 g tension in organ baths containing Tyrode solution gassed with 95% O2 and 5% CO2 at 32° C.
Dose-response curves were obtained by cumulative addition of ACh and repeated in the presence of various concentrations of test compounds, allowing 10 min. equilibration time.
The affinity of test compounds were determined as described for ileum.

`Cc1nccn1CCC(C(N)=O)(c1ccccc1)c1ccccc1` [Example 11, 4-(2-Methyl-1-imidazolyl)-2,2-diphenylbutylamide] was tested, and the Kb [1] was 69.2 pM and the Kb [2] was 1320 pM.

Reference: US5932607A, “Imidazole derivatives and process for preparing the same” (Kyorin Pharmaceutical Co., Ltd., priority 1993, dated 1999)
